Source: US11583516B2, “Dash inhibitors, and uses related thereto” (Trustees of Tufts College, priority 2016, dated 2023)

Test system: CT26 tumor
Format: in vivo

## N[C@H](C(=O)N1CCC[C@H]1B(O)O)C12CC3CC(CC(C3)C1)C2 (relative stereo) [ARI-5544, Gly(1-adamantyl)-boroPro]
5 micrograms alone, intraperitoneal or intratumoral, established CT26, treated 10 days after inoculation
  Antitumor efficacy alone, comparison: outperforms 50 micrograms of ARI-4175 alone
5 micrograms with anti-PD-1 antibody and anti-CTLA-4 inhibitor
  Tumor regression in triple therapy: complete regression of tumors in several of the treated animals
